This is an account of results in patent US8790689B2, “Tamper resistant transdermal dosage form” (dated 2014).

Only a part of the results on these compounds is given; other tests are left out. Not every entry of the source has a single result; some have several. The list is limited to them. The source may hold further records. Results that share an entry differ, and nothing given here explains why; dose, time, organism, isomer or construct need not be as stated for each record. Counts like (3×) give the number of equal values in this list.

This data set is described as follows: Plasma pharmacokinetics after single intraperitoneal co-administration of fentanyl and naltrexone.
[1] abbreviates: Group 1, SAN 1-5: fentanyl 125 μg/kg and naltrexone 125 μg/kg i.p.
Setting [2] is: Group 2, SAN 6-10: fentanyl 125 μg/kg and naltrexone 31.3 μg/kg i.p.
The mark [3] stands for this setting: Group 3, SAN 11-15: fentanyl 125 μg/kg and naltrexone 12.5 μg/kg i.p.

Consider norfentanyl, for which the “Cmax (individual rats)” value under setting [1] was 2474, 3572, 1595, 1870, 3245 pg/mL. Besides, the “tmax (individual rats)” value under setting [2] was 0.750, 0.333 (2×), 1.00, 1.50 h. Also, under setting [3], the “AUCinf (individual rats)” value is reported as 5096, 5245, 4303, 9417, 6203 pg · h/mL; the “Cmax (individual rats)” value is given as 911, 965, 1457, 2692, 3019 pg/mL; the “t1/2 (individual rats)” value is 3.34, 3.48, 1.60, 1.41, 1.81 h.

`CCC(=O)N(c1ccccc1)C1CCN(CCc2ccccc2)CC1`: the “AUCinf (individual rats)” value is 8657, 28382, 25082, 7301 pg · h/mL under setting [1] and 23772, 27690, 23180, 5387 pg · h/mL under setting [3]. In addition, the “Cmax (individual rats)” value by setting is: under setting [2], 19645, 10778, 27269, 11220, 41969 pg/mL; under setting [3], 17851, 24730, 27825, 6417, 5950 pg/mL.
